Measured values taken from patent US9242969B2, “Biaryl amide compounds as kinase inhibitors” (Novartis AG, priority 2013, dated 2016).

The chains behind the UniProt entries cited, without tags or fusion partners.
UniProt P04049, whole entry Y340E/Y341E: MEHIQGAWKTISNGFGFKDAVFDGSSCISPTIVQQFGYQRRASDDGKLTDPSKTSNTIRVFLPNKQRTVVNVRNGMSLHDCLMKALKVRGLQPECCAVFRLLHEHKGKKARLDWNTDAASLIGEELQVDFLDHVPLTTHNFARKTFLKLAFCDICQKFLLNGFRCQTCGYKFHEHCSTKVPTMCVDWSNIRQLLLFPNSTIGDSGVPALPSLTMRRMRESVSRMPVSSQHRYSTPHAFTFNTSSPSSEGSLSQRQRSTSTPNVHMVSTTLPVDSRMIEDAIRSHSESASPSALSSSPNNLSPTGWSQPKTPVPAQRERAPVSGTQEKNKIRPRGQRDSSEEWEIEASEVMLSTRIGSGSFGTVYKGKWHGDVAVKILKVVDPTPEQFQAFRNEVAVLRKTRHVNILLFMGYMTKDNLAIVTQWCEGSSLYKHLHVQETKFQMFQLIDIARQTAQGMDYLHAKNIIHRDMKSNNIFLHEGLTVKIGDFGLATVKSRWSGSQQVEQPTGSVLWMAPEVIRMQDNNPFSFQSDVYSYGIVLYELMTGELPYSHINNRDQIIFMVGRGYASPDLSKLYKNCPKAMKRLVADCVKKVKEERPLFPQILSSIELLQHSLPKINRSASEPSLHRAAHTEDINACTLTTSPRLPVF

The molecules below were run against C-Raf FL (full-length C-Raf with Y340E and Y341E activating mutations) (Homo sapiens (Human), UniProt P04049, Y340E/Y341E). Details: full-length c-Raf 4 pM, ATP 3 uM, 10 nM biotinylated MEK1 kinase dead.
Format: biochemical

SMILES | IC50
Cc1ccc(NC(=O)c2cccc(C(F)(F)F)c2)cc1-c1nc(N2CCOCC2)c2sccc2n1 [Example 204] | 39 pM
Cc1ncc(NC(=O)c2cccc(C(F)(F)F)c2)cc1-c1cc(N2CCOCC2)c(=O)n(C)n1 [Example 166, N-(6-methyl-5-(1-methyl-5-morpholino-6-oxo-1,6-dihydropyridazin-3-yl)pyridin-3-yl)-3-(trifluoromethyl)benzamide] | 665 pM
Cc1ccc(NC(=O)c2cccc(C(F)(F)F)c2)cc1-c1cc(C2CCOCC2)nc(N2CCOCC2)c1 [Example 107, N-(4-methyl-3-(2-morpholino-6-(tetrahydro-2H-pyran-4-yl)pyridin-4-yl)phenyl)-3-(trifluoromethyl)benzamide] | 363 pM
Cc1ccc(NC(=O)c2cccc(S(C)(=O)=O)c2)cc1-c1ccnc(N2CCOCC2)c1 [Example 68, N-(4-methyl-3-(2-morpholinopyridin-4-yl)phenyl)-3-(methylsulfonyl)benzamide] | 124 pM
Cc1ncc(NC(=O)c2cccc(C(F)(F)F)c2)cc1-c1cc(N2CCOCC2)cn(C)c1=O [Example 124, N-(1′,2-dimethyl-5′-morpholino-2′-oxo-1′,2′-dihydro-[3,3′-bipyridin]-5-yl)-3-(trifluoromethyl)benzamide] | 18000 pM
COc1ncc(N2CCOCC2)cc1-c1cc(NC(=O)c2cccc(C(F)(F)F)c2)ccc1C [Example 122, N-(3-(2-methoxy-5-morpholinopyridin-3-yl)-4-methylphenyl)-3-(trifluoromethyl)benzamide] | 606 pM
COC(=O)NC[C@@H]1CN(c2cc(-c3cc(NC(=O)c4cccc(C(F)(F)F)c4)cnc3C)ccn2)CCO1 [Example 86, (R)-methyl ((4-(2-methyl-5-(3-(trifluoromethyl)benzamido)-[3,4′-bipyridin]-2′-yl)morpholin-2-yl)methyl)carbamate] | 1100 pM
Cc1ccc(C(=O)Nc2cccc(C(F)(F)F)c2)cc1-c1ccnc(N2CCOCC2)c1 [Example 63, 4-Methyl-3-(2-morpholinopyridin-4-yl)-N-(3-(trifluoromethyl)phenyl)benzamide] | 436 pM
Cc1ccc(NC(=O)c2ccnc(C(C)(C)C#N)c2)cc1-c1ccnc(N2C[C@H](CN(C)C)OC[C@@H]2C)c1 [Example 80, 2-(2-cyanopropan-2-yl)-N-(3-(2-((2S,5S)-2-((dimethylamino)methyl)-5-methylmorpholino)pyridin-4-yl)-4-methylphenyl)isonicotinamide] | 10100 pM
Cc1ccc(NC(=O)c2cccc(C(F)(F)F)c2)cc1-c1cc(N2CCOCC2)nc(NCCO)n1 [Example 31, N-(3-(2-((2-hydroxyethyl)amino)-6-morpholinopyrimidin-4-yl)-4-methylphenyl)-3-(trifluoromethyl)benzamide] | 210 pM
Cc1ccc(NC(=O)c2cccc(C(F)(F)F)c2)cc1-c1ccnc(N2CCOCC2)c1 [Example 62, N-(4-methyl-3-(2-morpholinopyridin-4-yl)phenyl)-3-(trifluoromethyl)benzamide] | 161 pM
Cc1ncc(NC(=O)c2cccc(C(F)(F)F)c2)cc1-c1cc(N2CCOCC2=O)nc(N2CCOCC2)n1 [Example 5] | 713 pM
Cc1ccc(NC(=O)c2cccc(C(F)(F)F)c2)cc1-c1nc(N2CCOCC2)nc(N2CCOCC2)c1C [Example 57, N-(4-methyl-3-(5-methyl-2,6-dimorpholinopyrimidin-4-yl)phenyl)-3-(trifluoromethyl)benzamide] | 179 pM
Cc1ncc(NC(=O)c2ccnc(C(C)(F)F)c2)cc1-c1ccnc(N2CCOCC2)c1 [Example 100, 2-(1,1-difluoroethyl)-N-(2-methyl-2′-morpholino-[3,4′-bipyridin]-5-yl)isonicotinamide] | 522 pM
Cc1ccc(NC(=O)c2cccc(C(F)(F)F)c2)cc1-c1cc(N2CCO[C@@H](C)C2)nc(N2CCOCC2)n1 [Example 54, (S)—N-(4-methyl-3-(6-(2-methylmorpholino)-2-morpholinopyrimidin-4-yl)phenyl)-3-(trifluoromethyl)benzamide] | 625 pM
Cc1ccc(NC(=O)c2cccc(C(F)(F)F)c2)cc1-c1cc(N2CCOCC2)cc2[nH]c(=O)oc12 [Example 208] | 1100 pM
Cc1ccc(NC(=O)c2cccc(C(F)(F)F)c2)cc1-c1cn(CC(F)F)c(=O)c(N2CCOCC2)n1 [Example 170, N-(3-(4-(2,2-difluoroethyl)-6-morpholino-5-oxo-4,5-dihydropyrazin-2-yl)-4-methylphenyl)-3-(trifluoromethyl)benzamide] | 263 pM
Cc1ccc(NC(=O)c2cccc(C(F)(F)F)c2)cc1-c1cc(N2CCOCC2)nc(NS(C)(=O)=O)n1 [Example 35, N-(4-methyl-3-(2-(methylsulfonamido)-6-morpholinopyrimidin-4-yl)phenyl)-3-(trifluoromethyl)benzamide] | 634 pM
Cc1ncc(NC(=O)c2cccc(C(F)(F)F)c2)cc1-c1cnnc(N2CCOCC2)c1 [Example 58, N-(6-methyl-5-(6-morpholinopyridazin-4-yl)pyridin-3-yl)-3-(trifluoromethyl)benzamide] | 1030 pM
Cc1ccc(NC(=O)c2cccc(C(F)(F)F)c2)cc1-c1cc(N2CCOCC2)nc(N2CCOCC2)c1 [Example 65, N-(3-(2,6-dimorpholinopyridin-4-yl)-4-methylphenyl)-3-(trifluoromethyl)benzamide] | 187 pM

Continued, values first:

IC50 | SMILES
1220 pM | CNC[C@@H]1CN(c2cc(-c3cc(NC(=O)c4ccnc(C(C)(C)C#N)c4)ccc3C)ccn2)CCO1 [Example 84, (R)-2-(2-cyanopropan-2-yl)-N-(4-methyl-3-(2-(2-((methylamino)methyl)morpholino)pyridin-4-yl)phenyl)isonicotinamide]
273 pM | Cc1ccc(NC(=O)c2cccc(C(F)(F)F)c2)cc1-c1cc(N2CCOCC2)c(=O)n([C@@H](C)C#N)c1 [Example 149, (S)—N-(3-(1-(1-cyanoethyl)-5-morpholino-6-oxo-1,6-dihydropyridin-3-yl)-4-methylphenyl)-3-(trifluoromethyl)benzamide]
785 pM | Cc1ccc(NC(=O)c2ccnc(C(F)F)c2)cc1-c1cc(N2CCOCC2)c(=O)n(C)c1 [Example 215, 2-(difluoromethyl)-N-(4-methyl-3-(1-methyl-5-morpholino-6-oxo-1,6-dihydropyridin-3-yl)phenyl)isonicotinamide]
735 pM | CCn1cc(C(=O)Nc2ccc(C)c(-c3cc(N4CCOCC4)c(=O)n(C)c3)c2)cc(C(F)(F)F)c1=O [Example 116, 1-ethyl-N-(4-methyl-3-(1-methyl-5-morpholino-6-oxo-1,6-dihydropyridin-3-yl)phenyl)-6-oxo-5-(trifluoromethyl)-1,6-dihydropyridine-3-carboxamide]
11100 pM | COC(=O)NCCn1cc(-c2cc(NC(=O)c3cccc(C(F)(F)F)c3)cnc2C)cc(N2CCOCC2)c1=O [Example 193]
1620 pM | Cc1ccc(NC(=O)c2ccnc(C(C)(C)C#N)c2)cc1-c1cc2[nH]cnc2c(N2CCOCC2)n1 [Example 206]
474 pM | Cc1ccc(NC(=O)c2cccc(C(F)(F)F)c2)cc1-c1cnc(O[C@@H](C)C#N)c(N2CCOCC2)c1 [Example 152, (S)—N-(3-(6-(1-cyanoethoxy)-5-morpholinopyridin-3-yl)-4-methylphenyl)-3-(trifluoromethyl)benzamide]
359 pM | Cc1ccc(NC(=O)c2ccnc(C(C)(C)C#N)c2)cc1-c1cc(C2CCOCC2)nc(N2CCOCC2)c1 [Example 106, 2-(2-cyanopropan-2-yl)-N-(4-methyl-3-(2-morpholino-6-(tetrahydro-2H-pyran-4-yl)pyridin-4-yl)phenyl)isonicotinamide]
2260 pM | Cc1ccc(NC(=O)c2ccnc(C(C)(C)C#N)c2)cc1-c1cc(N2CCOCC2)c(=O)n(CCO)c1 [Example 143, 2-(2-cyanopropan-2-yl)-N-(3-(1-(2-hydroxyethyl)-5-morpholino-6-oxo-1,6-dihydropyridin-3-yl)-4-methylphenyl)isonicotinamide]
285 pM | Cc1ccc(NC(=O)c2cccc(C(C)(C)C#N)c2)cc1-c1cc(C2CCOCC2)nc(N2CCOCC2)c1 [Example 114, 3-(2-cyanopropan-2-yl)-N-(4-methyl-3-(2-morpholino-6-(tetrahydro-2H-pyran-4-yl)pyridin-4-yl)phenyl)benzamide]
396 pM | Cc1ccc(NC(=O)c2ccnc(C(C)(C)C)c2)cc1-c1ccnc(N2CCOCC2)c1 [Example 69, 2-(tert-butyl)-N-(4-methyl-3-(2-morpholinopyridin-4-yl)phenyl)isonicotinamide]
196 pM | Cc1ccc(NC(=O)c2cccc(C(F)(F)F)c2)cc1-c1cnc(O[C@H](C)C#N)c(N2CCOCC2)c1 [Example 153, (R)—N-(3-(6-(1-cyanoethoxy)-5-morpholinopyridin-3-yl)-4-methylphenyl)-3-(trifluoromethyl)benzamide]
322 pM | Cc1ccc(NC(=O)c2cccc(C(F)(F)F)c2)cc1-c1cc(N2CCOCC2)c(=O)n(C(C)C)c1 [Example 135, N-(3-(1-isopropyl-5-morpholino-6-oxo-1,6-dihydropyridin-3-yl)-4-methylphenyl)-3-(trifluoromethyl)benzamide]
398 pM | Cc1ccc(NC(=O)c2cc(C(F)(F)F)cc(S(C)(=O)=O)c2)cc1-c1cc(N2CCOCC2)c(=O)n(C)c1 [Example 176, N-(4-methyl-3-(1-methyl-5-morpholino-6-oxo-1,6-dihydropyridin-3-yl)phenyl)-3-(methylsulfonyl)-5-(trifluoromethyl)benzamide]
527 pM | Cc1ccc(C(=O)Nc2cccc(C(F)(F)F)c2)cc1-c1cc(N2CCOCC2)c(=O)n(C)c1 [Example 137, 4-methyl-3-(1-methyl-5-morpholino-6-oxo-1,6-dihydropyridin-3-yl)-N-(3-(trifluoromethyl)phenyl)benzamide]
483 pM | Cc1ccc(NC(=O)c2ccnc(C(C)(C)C#N)c2)cc1-c1cc(N2CCOCC2)c(=O)n(C)c1 [Example 140, 2-(2-cyanopropan-2-yl)-N-(4-methyl-3-(1-methyl-5-morpholino-6-oxo-1,6-dihydropyridin-3-yl)phenyl)isonicotinamide]
